{"source": "patent US9439928B2", "about": "“Method for combined conditioning and chemoselection in a single cycle” (THE REGENTS OF THE UNIVERSITY OF CALIFORNIA, priority 2011, dated 2016)", "tested_on": "BM of HPRT-wt mice", "conditions": "for B220+ cells in BM / CD4+ cells in BM / CD8+ cells in BM / KLS (HSC) cells in BM / Mac1+/Gr1+ cells in BM: % of total CD45+ cells; for B220+ cells in BM / CD4+ cells in BM / CD8+ cells in BM / KLS (HSC) cells in BM / Mac1+/Gr1+ cells in BM / CD45+ cells in BM: mean ± SD, n=3", "key": {"[1]": {"conditions": "single dose 10 mg/kg 6TG Day 1, analysis Day 4 (ii)"}, "[2]": {"conditions": "two doses 10 mg/kg 6TG Days 1 and 3, analysis Day 4 (iii)"}, "[3]": {"conditions": "two doses 10 mg/kg 6TG Days 1 and 3, analysis Day 7 (iv)"}}, "note": "Read-outs that look alike come from different tables or passages of the source.", "data": [{"smiles": "Nc1nc2nc[nH]c2c(=S)[nH]1", "note": "[6TG, 6-thioguanine]", "values": [{"measurement": "decrease of relative proportion of KLS progenitors in BM vs control", "setting": "10 mg/kg 6TG x 2, by Day 4, p<0.01", "value": 3, "unit": "fold"}, {"measurement": "decrease of relative proportion of KLS progenitors in BM vs control", "setting": "10 mg/kg 6TG x 2, by Day 7, p<0.001", "value": 10, "unit": "fold"}, {"measurement": "clinical signs", "setting": "any conditioning regimen, Day 4", "value": "No readily apparent clinical signs"}, {"measurement": "change of relative percentage of B220+ cells in BM vs controls", "setting": "by Day 4", "value": "no significant change"}, {"measurement": "change of relative percentage of B220+ cells in BM vs controls", "setting": "by Day 7", "value": "doubled"}, {"measurement": "increase of relative percentage of mature CD8+ and CD4+ T cells in BM vs controls", "setting": "by Day 7, p<0.001", "value": "up to 7 fold"}, {"measurement": "clinical signs", "setting": "conditioning regimens, extended observation, by Day 7", "value": "weight loss and pallor of the extremities"}, {"measurement": "liver enzymes", "setting": "following conditioning regimen", "value": "not elevated"}, {"measurement": "B220+ cells in BM", "setting": "[1]", "value": "23.1 ± 2.2", "unit": "%"}, {"measurement": "CD4+ cells in BM", "setting": "[1]", "value": "11.9 ± 2.5", "unit": "%"}, {"measurement": "CD8+ cells in BM", "setting": "[1]", "value": "5.3 ± 1.7", "unit": "%"}, {"measurement": "KLS (HSC) cells in BM", "setting": "[1]", "value": "1.3 ± 0.2", "unit": "%"}, {"measurement": "Mac1+/Gr1+ cells in BM", "setting": "[1]", "value": "85.4 ± 1.8", "unit": "%"}, {"measurement": "CD45+ cells in BM", "setting": "[1]", "value": "95.7 ± 0.8", "unit": "%"}, {"measurement": "BM histology (H&E)", "setting": "single dose 2.5, 5.0 or 10 mg/kg i.p. Day 1 or two doses 10 mg/kg Days 1 and 3, Day 4", "value": "Increasing myelotoxicity"}, {"measurement": "B220+ cells in BM", "setting": "[2]", "value": "26.2 ± 1.8", "unit": "%"}, {"measurement": "CD4+ cells in BM", "setting": "[2]", "value": "9.6 ± 0.6", "unit": "%"}, {"measurement": "CD8+ cells in BM", "setting": "[2]", "value": "5.2 ± 0.4", "unit": "%"}, {"measurement": "KLS (HSC) cells in BM", "setting": "[2]", "value": "1.4 ± 0.5", "unit": "%"}, {"measurement": "Mac1+/Gr1+ cells in BM", "setting": "[2]", "value": "81.0 ± 1.3", "unit": "%"}, {"measurement": "CD45+ cells in BM", "setting": "[2]", "value": "95.7 ± 0.1", "unit": "%"}, {"measurement": "B220+ cells in BM", "setting": "[3]", "value": "56.3 ± 1.5", "unit": "%"}, {"measurement": "CD4+ cells in BM", "setting": "[3]", "value": "20.5 ± 3.1", "unit": "%"}, {"measurement": "CD8+ cells in BM", "setting": "[3]", "value": "25.0 ± 2.7", "unit": "%"}, {"measurement": "KLS (HSC) cells in BM", "setting": "[3]", "value": "0.4 ± 0.2", "unit": "%"}, {"measurement": "Mac1+/Gr1+ cells in BM", "setting": "[3]", "value": "61.8 ± 3.0", "unit": "%"}, {"measurement": "CD45+ cells in BM", "setting": "[3]", "value": "82.8 ± 5.1", "unit": "%"}, {"measurement": "BM nucleated cell count recovered from one femur and tibia", "setting": "two doses of 10 mg/kg 6TG, analyzed on Day 7, n=3", "value": "4.7×10^6±1.0×10^6"}]}]}
